Experimental data taken from patent publication US20140155376A1, “PYRROLOPYRAZINE KINASE INHIBITORS” (Hoffmann-La Roche Inc., priority 2010, published 2014).

Sequences of proteins named here, by UniProt entry; tags and fusion partners are left off. Residues count along the entry.
UniProt P52333, 810-1124: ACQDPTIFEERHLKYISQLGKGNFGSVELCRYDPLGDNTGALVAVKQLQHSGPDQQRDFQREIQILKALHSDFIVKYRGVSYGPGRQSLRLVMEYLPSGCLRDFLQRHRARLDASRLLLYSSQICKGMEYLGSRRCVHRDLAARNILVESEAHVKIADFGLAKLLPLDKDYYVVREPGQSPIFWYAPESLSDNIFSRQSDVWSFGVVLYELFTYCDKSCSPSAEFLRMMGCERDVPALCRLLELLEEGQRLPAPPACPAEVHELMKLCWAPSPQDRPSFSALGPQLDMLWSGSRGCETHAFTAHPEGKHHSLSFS

Target: T1, JAK3 (recombinant human kinase domain; h-jak3(810-1124)) (Homo sapiens, UniProt P52333)
T1 construct: h-jak3(810- 1124)-sf9-c; made in house; host or cells: Sf9 insect cells
Experiment: Determination of IC50 of Janus Kinase (JAK) inhibition: JAK3, radioactive end-point assay with 33P-ATP
Assay type: biochemical
Conditions: ATP 1.5 uM, peptide 50 uM, 20 minutes, room temperature, 10% DMSO, read-out: Ic50 h-jak3(810-1124)-sf9-c:no additive

Row | IC50 | Structure (SMILES)
1 | 48.8 nM | CC(C)NC(=O)c1c[nH]c2ncc(C3CC3)nc12 [Example I-8, 2-Cyclopropyl-5H-pyrrolo[2,3-b]pyrazine-7-carboxylic acid isopropylamide]
2 | 19.1 nM | C[C@@H](NC(=O)c1c[nH]c2ncc(C3CC3)nc12)C(C)(C)O [Example I-30, 2-Cyclopropyl-5H-pyrrolo[2,3-b]pyrazine-7-carboxylic acid ((R)-2-hydroxy-1,2-dimethyl-propyl)-amide]
